Experimental data: patent US20040234501A1, “Hepatitis b virus proliferation inhibitor” (priority 2001, published 2004)

Columns and labels:
[1] = test system: hepatitis B virus; test: Amount of hepatitis B virus in the blood (HBV-DNA) and emergence of resistant virus in a patient with chronic hepatitis B; format: in vivo, human
Description: (§1) Confirmation of the effect of IFN administration to a patient with chronic hepatitis B:
(§2) Therefore, 3,000,000 units of IFN-α were administered for a total of 28 days.

[2] = Liver function (GPT) in a patient with chronic hepatitis B; format: in vivo, human
Description: as §1, §2

[3] = about 4 months after termination of IFN-β administration

B1: interferon-β (protein, UniProt P01574 22-187, looked up)
Interferon beta: MSYNLLGFLQRSSNFQCQKLLWQLNGRLEYCLKDRMNFDIPEEIKQLQQFQKEDAALTIYEMLQNIFAIFRQDSSSTGWNETIVENLLANVYHQINHLKTVLEEKLEKEDFTRGKLMSSLHLKRYYGRILHYLKAKEYSHCAWTIVRVEILRNFYFINRLTGYLRN
hepatitis B virus in the blood ([1]; 3,000,000 units IFN-β intravenously for 30 weeks, at termination of administration, YMDD mutant case during long-term lamivudine): became negative
hepatitis B virus in the blood [1, 3]: remained negative
liver function ([2]; 3,000,000 units IFN-β intravenously for 30 weeks, at termination of administration): normalized
liver function [2, 3]: remained normal
